For this assay, the target named is T1, rat GLP-1 receptor (Rattus norvegicus, UniProt P32301).
T1 construct: expressed in transfected cells; host or cells: CHO (CHO-GLP-1R)
T1 sequence (P32301 22-463): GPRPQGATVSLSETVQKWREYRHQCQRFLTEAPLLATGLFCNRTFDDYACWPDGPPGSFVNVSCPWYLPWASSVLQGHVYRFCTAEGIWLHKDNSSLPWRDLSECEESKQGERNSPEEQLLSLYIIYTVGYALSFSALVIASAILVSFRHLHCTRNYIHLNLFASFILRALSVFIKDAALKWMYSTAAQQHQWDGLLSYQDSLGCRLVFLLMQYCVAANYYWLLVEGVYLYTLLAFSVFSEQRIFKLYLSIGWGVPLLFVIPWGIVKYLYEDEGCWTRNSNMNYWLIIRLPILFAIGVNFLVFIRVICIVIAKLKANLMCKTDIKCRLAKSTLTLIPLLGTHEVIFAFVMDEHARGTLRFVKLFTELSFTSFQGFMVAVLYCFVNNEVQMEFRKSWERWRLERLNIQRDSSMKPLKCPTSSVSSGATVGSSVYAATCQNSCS
The experiment in a line: cAMP potency assay in CHO cells transfected with the rat GLP-1 receptor (CHO-GLP-1R). The settings on record: cAMP accumulation in CHO-GLP-1R cells. The class given is cell-based. How it is done: Potency was calculated from the measured response of cAMP produced as a result of GLP-1 receptor-mediated ligand binding in CHO cells transfected with the rat GLP-1 receptor (CHO-GLP-1R) following incubation with samples. 96-well tissue culture plates were seeded with CHO-GLP-1R cells and cultured overnight. The following day, the cells were rinsed with Krebs-Ringer buffer (KRB) and incubated in KRB containing the phosphodiesterase inhibitor 3-isobutyl-1-methylxanthine (IBMX, 2 mM) to inhibit intracellular enzymes that process cAMP. Serial dilutions of test compounds and controls were prepared in KRB/IBMX and triplicate wells of cells were inoculated with samples and controls. After incubation, individual sample lysates were then assayed to measure the increase in intracellular cAMP levels using a competition-based fluorescent immunoassay (CatchPoint® cAMP Fluorescent Assay Kit, Molecular Devices Corp., Sunnyvale, Calif.). The amount of cAMP accumulation in cells after GLP-1 receptor-mediated ligand binding is used to determine bioactivity and relative potency.
Background: Changes in cAMP serve as a functional read-out for many G protein-coupled receptors.

The record followed here is patent US8158579B2, “Fusion protein of an exendin to modified transferrin” (BioRexis Pharmaceutical Corporation, priority 2006, dated 2012).

In general, EC50 refers to the concentration needed to bring the measured effect to its halfway point. A lower EC50 goes with higher potency in that assay.

Consider “GLP-1(7-37,A8G,K34A) (PEAPTD)2 (SEQ ID NO: 5) mTf fusion protein: GLP-1(7-37) with A8G, K34A fused via (PEAPTD)2 linker to modified transferrin mTf; comparator fusion protein (PEAPTDPEAPTD; chains of the parent or of the whole protein) [reference compound]”, for which the EC50 turned out to be 1.3 nM.
